Assay results as given in patent US20260384450A1, “MACROCYCLIC AMINOPYRIDINE COMPOUNDS AS EGFR INHIBITORS” (published 2026).
Read-outs that look alike come from different tables or passages of the source.

Amino acid sequences for entries named in this document (tags omitted). A change or cut given only in a name is not applied to a line headed by its entry. Chains listed by the source or under a name are the forms on record and can include a tag or linker. Residues count along the entry.
UniProt P00533, 25-1210 limits assumed: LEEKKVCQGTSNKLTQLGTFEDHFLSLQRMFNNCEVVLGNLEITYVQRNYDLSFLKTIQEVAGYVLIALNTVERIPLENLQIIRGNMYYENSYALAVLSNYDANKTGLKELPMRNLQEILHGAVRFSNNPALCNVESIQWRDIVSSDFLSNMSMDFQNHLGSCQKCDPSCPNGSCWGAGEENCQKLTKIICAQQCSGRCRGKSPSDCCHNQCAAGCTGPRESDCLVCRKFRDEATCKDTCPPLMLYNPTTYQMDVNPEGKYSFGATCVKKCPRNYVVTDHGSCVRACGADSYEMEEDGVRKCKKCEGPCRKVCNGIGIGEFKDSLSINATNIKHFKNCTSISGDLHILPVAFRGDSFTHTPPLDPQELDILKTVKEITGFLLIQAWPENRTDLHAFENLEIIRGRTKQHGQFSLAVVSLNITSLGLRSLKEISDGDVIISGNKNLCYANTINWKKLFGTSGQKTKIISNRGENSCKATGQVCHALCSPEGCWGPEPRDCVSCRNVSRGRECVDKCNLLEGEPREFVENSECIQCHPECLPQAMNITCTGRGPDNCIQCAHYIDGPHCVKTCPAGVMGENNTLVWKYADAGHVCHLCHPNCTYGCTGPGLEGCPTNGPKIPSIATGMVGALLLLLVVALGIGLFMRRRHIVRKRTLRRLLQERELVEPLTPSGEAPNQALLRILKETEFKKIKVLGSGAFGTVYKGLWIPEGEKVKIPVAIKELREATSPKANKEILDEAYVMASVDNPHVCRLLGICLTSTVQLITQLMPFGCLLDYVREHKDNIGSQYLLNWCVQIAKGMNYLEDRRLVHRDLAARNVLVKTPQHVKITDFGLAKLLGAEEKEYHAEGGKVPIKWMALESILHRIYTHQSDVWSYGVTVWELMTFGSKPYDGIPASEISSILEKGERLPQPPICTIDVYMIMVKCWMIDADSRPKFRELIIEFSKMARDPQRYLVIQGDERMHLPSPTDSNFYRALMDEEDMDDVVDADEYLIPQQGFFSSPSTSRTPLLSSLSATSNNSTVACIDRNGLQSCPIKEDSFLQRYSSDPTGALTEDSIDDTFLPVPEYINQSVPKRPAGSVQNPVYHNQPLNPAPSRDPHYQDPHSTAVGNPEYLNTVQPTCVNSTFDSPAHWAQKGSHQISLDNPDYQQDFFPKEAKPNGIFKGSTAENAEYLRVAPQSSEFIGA
UniProt P00533, 25-1210 C797S/L858R limits assumed: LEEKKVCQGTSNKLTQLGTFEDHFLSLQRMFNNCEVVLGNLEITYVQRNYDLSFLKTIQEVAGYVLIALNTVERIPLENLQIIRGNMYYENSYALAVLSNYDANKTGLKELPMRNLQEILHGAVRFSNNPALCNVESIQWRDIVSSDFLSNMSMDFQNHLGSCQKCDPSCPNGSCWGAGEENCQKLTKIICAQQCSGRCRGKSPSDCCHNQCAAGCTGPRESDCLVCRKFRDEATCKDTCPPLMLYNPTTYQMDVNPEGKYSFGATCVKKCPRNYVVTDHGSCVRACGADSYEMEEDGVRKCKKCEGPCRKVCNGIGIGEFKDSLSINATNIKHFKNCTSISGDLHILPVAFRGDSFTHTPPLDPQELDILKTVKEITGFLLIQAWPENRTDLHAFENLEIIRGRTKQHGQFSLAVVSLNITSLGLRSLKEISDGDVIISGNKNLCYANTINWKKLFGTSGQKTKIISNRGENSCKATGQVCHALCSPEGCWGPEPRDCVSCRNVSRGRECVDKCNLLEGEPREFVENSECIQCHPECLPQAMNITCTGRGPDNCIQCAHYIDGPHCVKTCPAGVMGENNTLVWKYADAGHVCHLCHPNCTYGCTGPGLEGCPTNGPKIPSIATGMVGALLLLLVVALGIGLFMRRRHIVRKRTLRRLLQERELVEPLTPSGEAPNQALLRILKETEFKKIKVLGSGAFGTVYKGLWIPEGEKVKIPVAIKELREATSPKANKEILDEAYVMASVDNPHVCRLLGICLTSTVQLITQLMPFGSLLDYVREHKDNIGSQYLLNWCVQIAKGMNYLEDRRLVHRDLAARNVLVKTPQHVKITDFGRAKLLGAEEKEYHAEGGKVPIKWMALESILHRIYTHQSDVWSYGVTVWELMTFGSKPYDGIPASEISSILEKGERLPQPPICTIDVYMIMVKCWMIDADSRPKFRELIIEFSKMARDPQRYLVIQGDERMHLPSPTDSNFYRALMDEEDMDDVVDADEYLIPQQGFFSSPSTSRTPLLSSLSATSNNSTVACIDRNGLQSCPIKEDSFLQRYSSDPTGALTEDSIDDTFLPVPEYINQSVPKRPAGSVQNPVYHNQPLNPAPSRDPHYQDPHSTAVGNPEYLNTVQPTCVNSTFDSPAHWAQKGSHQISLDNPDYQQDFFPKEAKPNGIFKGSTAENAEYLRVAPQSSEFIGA
UniProt P00533, 25-1210 T790M/C797S/L858R limits assumed: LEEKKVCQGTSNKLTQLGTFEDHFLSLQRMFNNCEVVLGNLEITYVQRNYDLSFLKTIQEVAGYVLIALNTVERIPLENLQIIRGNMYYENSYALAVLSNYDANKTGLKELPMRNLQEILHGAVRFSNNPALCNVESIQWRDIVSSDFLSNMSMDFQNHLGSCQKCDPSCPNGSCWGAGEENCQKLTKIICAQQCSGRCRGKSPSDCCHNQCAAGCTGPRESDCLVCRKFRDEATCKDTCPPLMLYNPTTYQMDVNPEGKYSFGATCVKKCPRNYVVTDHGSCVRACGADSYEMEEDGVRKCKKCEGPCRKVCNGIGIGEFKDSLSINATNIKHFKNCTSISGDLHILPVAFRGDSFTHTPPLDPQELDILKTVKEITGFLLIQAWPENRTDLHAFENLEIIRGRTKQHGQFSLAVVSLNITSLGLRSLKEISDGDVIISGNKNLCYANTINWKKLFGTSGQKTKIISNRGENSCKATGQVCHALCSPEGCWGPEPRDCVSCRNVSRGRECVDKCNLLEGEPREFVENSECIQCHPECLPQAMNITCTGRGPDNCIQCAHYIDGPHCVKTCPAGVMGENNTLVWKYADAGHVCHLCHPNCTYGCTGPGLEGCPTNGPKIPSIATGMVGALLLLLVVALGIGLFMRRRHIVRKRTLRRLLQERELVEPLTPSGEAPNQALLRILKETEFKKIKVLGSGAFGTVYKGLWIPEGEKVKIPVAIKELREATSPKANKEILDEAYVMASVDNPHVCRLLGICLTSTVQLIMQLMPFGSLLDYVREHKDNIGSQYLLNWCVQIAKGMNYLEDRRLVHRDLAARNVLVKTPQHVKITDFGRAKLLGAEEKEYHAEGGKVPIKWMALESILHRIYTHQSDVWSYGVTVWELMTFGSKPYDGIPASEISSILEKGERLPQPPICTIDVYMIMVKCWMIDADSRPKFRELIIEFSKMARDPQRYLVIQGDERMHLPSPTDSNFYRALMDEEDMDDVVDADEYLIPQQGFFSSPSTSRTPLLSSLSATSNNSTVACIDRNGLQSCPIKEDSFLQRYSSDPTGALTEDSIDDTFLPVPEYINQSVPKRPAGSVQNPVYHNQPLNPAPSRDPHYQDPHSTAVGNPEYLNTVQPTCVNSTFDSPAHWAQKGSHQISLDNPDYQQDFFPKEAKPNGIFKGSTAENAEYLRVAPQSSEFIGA
UniProt P00533, with tags, fused parts or gaps DEL746-750/C797S limits assumed: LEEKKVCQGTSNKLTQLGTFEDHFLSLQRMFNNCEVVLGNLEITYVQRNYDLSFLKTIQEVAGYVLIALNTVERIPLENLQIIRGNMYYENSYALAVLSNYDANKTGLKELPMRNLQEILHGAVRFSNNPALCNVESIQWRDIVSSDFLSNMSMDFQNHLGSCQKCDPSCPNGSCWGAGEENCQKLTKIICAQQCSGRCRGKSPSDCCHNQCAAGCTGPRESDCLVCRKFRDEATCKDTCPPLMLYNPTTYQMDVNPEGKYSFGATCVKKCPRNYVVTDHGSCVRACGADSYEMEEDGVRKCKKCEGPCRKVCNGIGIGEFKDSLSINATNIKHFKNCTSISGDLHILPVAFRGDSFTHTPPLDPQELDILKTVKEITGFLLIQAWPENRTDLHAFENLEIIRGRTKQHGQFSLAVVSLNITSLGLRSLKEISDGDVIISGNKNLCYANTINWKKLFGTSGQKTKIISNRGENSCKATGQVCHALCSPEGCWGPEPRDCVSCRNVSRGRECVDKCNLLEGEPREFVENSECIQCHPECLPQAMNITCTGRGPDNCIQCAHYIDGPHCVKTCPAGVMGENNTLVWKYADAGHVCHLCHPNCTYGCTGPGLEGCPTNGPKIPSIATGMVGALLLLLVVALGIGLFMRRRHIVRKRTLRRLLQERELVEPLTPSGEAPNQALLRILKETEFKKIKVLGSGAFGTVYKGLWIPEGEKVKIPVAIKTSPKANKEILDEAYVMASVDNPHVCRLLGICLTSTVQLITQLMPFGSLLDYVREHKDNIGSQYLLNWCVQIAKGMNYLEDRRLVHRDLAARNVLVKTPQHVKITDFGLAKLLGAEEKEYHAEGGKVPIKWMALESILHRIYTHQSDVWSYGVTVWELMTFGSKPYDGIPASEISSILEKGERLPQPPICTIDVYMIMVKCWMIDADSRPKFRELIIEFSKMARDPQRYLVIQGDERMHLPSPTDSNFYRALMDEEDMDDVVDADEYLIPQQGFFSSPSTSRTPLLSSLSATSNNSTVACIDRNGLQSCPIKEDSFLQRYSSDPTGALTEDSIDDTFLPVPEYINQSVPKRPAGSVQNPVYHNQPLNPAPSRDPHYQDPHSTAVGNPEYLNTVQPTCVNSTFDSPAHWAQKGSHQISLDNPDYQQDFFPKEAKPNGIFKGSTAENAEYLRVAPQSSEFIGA
UniProt P00533, with tags, fused parts or gaps DEL746-750/T790M/C797S limits assumed: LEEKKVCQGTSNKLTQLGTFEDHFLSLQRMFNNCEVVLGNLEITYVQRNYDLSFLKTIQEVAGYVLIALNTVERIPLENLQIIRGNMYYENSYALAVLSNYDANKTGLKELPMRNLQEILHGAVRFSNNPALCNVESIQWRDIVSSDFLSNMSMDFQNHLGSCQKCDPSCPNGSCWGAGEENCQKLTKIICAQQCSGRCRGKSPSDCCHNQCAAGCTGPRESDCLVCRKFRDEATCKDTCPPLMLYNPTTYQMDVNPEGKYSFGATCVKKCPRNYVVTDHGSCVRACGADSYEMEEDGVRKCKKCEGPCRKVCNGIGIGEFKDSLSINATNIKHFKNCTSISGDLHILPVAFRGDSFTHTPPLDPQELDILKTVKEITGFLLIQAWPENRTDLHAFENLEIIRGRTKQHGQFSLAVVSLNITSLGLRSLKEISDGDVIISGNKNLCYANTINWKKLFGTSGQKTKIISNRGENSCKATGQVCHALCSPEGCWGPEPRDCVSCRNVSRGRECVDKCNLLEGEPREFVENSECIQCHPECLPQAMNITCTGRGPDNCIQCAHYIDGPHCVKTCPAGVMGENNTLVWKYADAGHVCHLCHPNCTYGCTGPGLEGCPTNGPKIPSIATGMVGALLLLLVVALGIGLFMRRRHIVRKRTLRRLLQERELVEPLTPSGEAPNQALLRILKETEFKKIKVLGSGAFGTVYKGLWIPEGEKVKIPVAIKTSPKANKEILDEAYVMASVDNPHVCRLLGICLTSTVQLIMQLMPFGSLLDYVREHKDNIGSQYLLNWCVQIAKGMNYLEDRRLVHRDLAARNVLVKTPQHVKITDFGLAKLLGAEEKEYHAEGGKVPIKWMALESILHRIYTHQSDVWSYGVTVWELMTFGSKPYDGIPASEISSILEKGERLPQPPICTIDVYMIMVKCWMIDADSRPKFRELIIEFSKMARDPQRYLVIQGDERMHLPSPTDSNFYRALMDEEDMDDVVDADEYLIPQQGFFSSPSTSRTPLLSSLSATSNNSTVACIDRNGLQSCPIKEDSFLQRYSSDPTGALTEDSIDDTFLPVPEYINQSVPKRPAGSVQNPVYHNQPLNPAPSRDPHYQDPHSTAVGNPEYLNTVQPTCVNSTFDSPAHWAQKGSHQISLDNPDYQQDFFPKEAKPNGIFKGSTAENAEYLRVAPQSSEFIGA

Legend:
[1] = target: EGFR D19TMCS (del19/T790M/C797S) (Homo sapiens, UniProt P00533, C797S/DEL746-750/T790M); assay: Biochemical EGFR kinase assay (Lance Ultra TR-FRET), triple mutant del19/T790M/C797S
[2] = target: EGFR LRTMCS (L858R/T790M/C797S) (Homo sapiens, UniProt P00533, C797S/L858R/T790M); assay: Biochemical EGFR kinase assay (Lance Ultra TR-FRET), triple mutant L858R/T790M/C797S
[3] = target: EGFR D19CS (del19/C797S) (Homo sapiens, UniProt P00533, C797S/DEL746-750); assay: Biochemical EGFR kinase assay (Lance Ultra TR-FRET), double mutant del19/C797S
[4] = target: EGFR LRCS (L858R/C797S) (Homo sapiens, UniProt P00533, C797S/L858R); assay: Biochemical EGFR kinase assay (Lance Ultra TR-FRET), double mutant L858R/C797S
[5] = target: EGFR WT (Homo sapiens, UniProt P00533); assay: Biochemical EGFR kinase assay (Lance Ultra TR-FRET), wildtype
[6] = read-out: IC50, EGFR D19TMCS, Km, ATP at Km, EGFR del19/T790M/C797S
[7] = read-out: IC50, EGFR LRTMCS, 1 mM, ATP 1 mM, EGFR L858R/T790M/C797S
[8] = read-out: IC50, EGFR LRTMCS, Km, ATP at Km, EGFR L858R/T790M/C797S
[9] = read-out: IC50, EGFR-D19CS, 1 mM, ATP 1 mM, EGFR del19/C797S
[10] = read-out: IC50, EGFR-D19CS, Km, ATP at Km, EGFR del19/C797S
[11] = read-out: IC50, EGFR-LRCS, 1 mM, ATP 1 mM, EGFR L858R/C797S
[12] = read-out: IC50, EGFR-LRCS, Km, ATP at Km, EGFR L858R/C797S
[13] = read-out: IC50, EGFR WT, 1 mM, ATP 1 mM, EGFR wildtype
[14] = read-out: IC50, EGFR WT, Km, ATP at Km, EGFR wildtype
[15] = read-out: EGFR D19TMCS IC50, ATP 1 mM
[16] = read-out: EGFR D19TMCS IC50, ATP Km
[17] = read-out: EGFR LRTMCS IC50, ATP 1 mM
[18] = read-out: EGFR LRTMCS IC50, ATP Km
[19] = read-out: EGFR D19CS IC50, ATP 1 mM
[20] = read-out: EGFR D19CS IC50, ATP Km
[21] = read-out: EGFR LRCS IC50, ATP 1 mM
[22] = read-out: EGFR LRCS IC50, ATP Km
[23] = read-out: EGFR WT IC50, ATP 1 mM

IC50 [1, 6] [µM]	IC50 [2, 7] [µM]	IC50 [2, 8] [µM]	IC50 [3, 9] [µM]	IC50 [3, 10] [µM]	IC50 [4, 11] [µM]	IC50 [4, 12] [µM]	IC50 [5, 13] [µM]	IC50 [5, 14] [µM]	IC50 [1, 15] [µM]	IC50 [1, 16] [µM]	IC50 [2, 17] [µM]	IC50 [2, 18] [µM]	IC50 [3, 19] [µM]	IC50 [3, 20] [µM]	IC50 [4, 21] [µM]	IC50 [4, 22] [µM]	IC50 [5, 23] [µM]	IC50 ([5]; read-out: EGFR WT IC50, ATP Km) [µM]	SMILES
< 0.01	< 0.01	< 0.01	0.01 to 0.1	< 0.01	0.01 to 0.1	< 0.01	> 1	< 0.01	–	–	–	–	–	–	–	–	–	–	Cc1nn(C)c2c1-c1nccc(n1)Nc1cc(c(-c3cnc(C(C)(C)O)cn3)cn1)NCC[C@H](C)O2
–	–	–	–	–	–	–	–	–	< 0.01	< 0.01	< 0.01	< 0.01	0.1 to 1	0.01 to 0.1	> 1	< 0.01	> 1	0.1 to 1	C[C@H]1CCOc2c(cnn2C)-c2nccc(n2)Nc2cc(c(-c3ccn(CC(F)(F)F)n3)cn2)N1
–	–	–	–	–	–	–	–	–	< 0.01	< 0.01	< 0.01	< 0.01	0.01 to 0.1	< 0.01	0.1 to 1	< 0.01	> 1	0.01 to 0.1	C[C@H]1CCOc2c(cnn2C)-c2nccc(n2)Nc2cc(c(-c3cnc(OC4COC4)cn3)cn2)N1
–	–	–	–	–	–	–	–	–	< 0.01	< 0.01	< 0.01	< 0.01	0.01 to 0.1	< 0.01	> 1	< 0.01	> 1	0.01 to 0.1	Cc1nn(C)c2c1-c1nccc(n1)Nc1cc(c(-c3ncc(C(C)(C)F)cn3)cn1)N[C@@H](C)CCO2
–	–	–	–	–	–	–	–	–	< 0.01	< 0.01	< 0.01	< 0.01	< 0.01	< 0.01	< 0.01	< 0.01	> 1	< 0.01	Cc1nn(C)c2c1-c1nccc(n1)Nc1cc(c(-c3ncc(CN4CCN(C)CC4)cc3F)cn1)NCC[C@H](C)O2
–	–	–	–	–	–	–	–	–	> 1	0.1 to 1	> 1	0.1 to 1	> 1	> 1	> 1	0.1 to 1	> 1	> 1	Cc1nn(C)c2c1-c1nccc(n1)Nc1cc(c(-c3ncc(S(C)(=O)=O)cc3F)cn1)N[C@@H](C)CCO2
< 0.01	< 0.01	< 0.01	< 0.01	< 0.01	< 0.01	< 0.01	> 1	< 0.01	–	–	–	–	–	–	–	–	–	–	Cc1nn(C)c2c1-c1nccc(n1)Nc1cc(c(-c3ccc(S(C)(=O)=O)cn3)cn1)NCC[C@@H](C)O2
–	–	–	–	–	–	–	–	–	0.01 to 0.1	< 0.01	0.01 to 0.1	< 0.01	> 1	0.1 to 1	> 1	0.01 to 0.1	> 1	0.01 to 0.1	CC(C)n1ncc2c1OCC[C@H](C)Nc1cc(ncc1-c1ccn(C(F)F)n1)Nc1ccnc-2n1
–	–	–	–	–	–	–	–	–	< 0.01	< 0.01	< 0.01	< 0.01	< 0.01	< 0.01	< 0.01	< 0.01	0.1 to 1	0.01 to 0.1	Cc1nn(C)c2c1-c1nccc(n1)Nc1cc(c(-c3ccc(N4CCC(N(C)C)CC4)cn3)cn1)NCC[C@H](C)O2
–	–	–	–	–	–	–	–	–	< 0.01	< 0.01	0.1 to 1	< 0.01	0.1 to 1	0.01 to 0.1	> 1	0.01 to 0.1	> 1	> 1	Cc1nn(C)c2c1-c1nccc(n1)Nc1cc(c(-c3ccc(C(F)F)cn3)cn1)N[C@@H](C)CCO2
–	–	–	–	–	–	–	–	–	< 0.01	< 0.01	< 0.01	< 0.01	< 0.01	< 0.01	0.01 to 0.1	< 0.01	> 1	< 0.01	Cc1nn(C)c2c1-c1nccc(n1)Nc1cc(c(-c3ncc(CN4CC(C(C)(C)F)C4)cc3F)cn1)N[C@@H](C)CCO2
–	–	–	–	–	–	–	–	–	0.01 to 0.1	< 0.01	0.01 to 0.1	< 0.01	0.1 to 1	0.1 to 1	> 1	0.01 to 0.1	> 1	0.01 to 0.1	Cn1ncc2c1OCC(C)(C)CNc1cc(ncc1-c1nccc(CO)c1F)Nc1ccnc-2n1
